Source: patent US5679701A (priority 1996, dated 1997)

By UniProt entry, the sequences of proteins in these tests, tags left out. Where a name states a change or a piece, a line headed by the entry shows the natural chain unless it says otherwise.
UniProt P11716: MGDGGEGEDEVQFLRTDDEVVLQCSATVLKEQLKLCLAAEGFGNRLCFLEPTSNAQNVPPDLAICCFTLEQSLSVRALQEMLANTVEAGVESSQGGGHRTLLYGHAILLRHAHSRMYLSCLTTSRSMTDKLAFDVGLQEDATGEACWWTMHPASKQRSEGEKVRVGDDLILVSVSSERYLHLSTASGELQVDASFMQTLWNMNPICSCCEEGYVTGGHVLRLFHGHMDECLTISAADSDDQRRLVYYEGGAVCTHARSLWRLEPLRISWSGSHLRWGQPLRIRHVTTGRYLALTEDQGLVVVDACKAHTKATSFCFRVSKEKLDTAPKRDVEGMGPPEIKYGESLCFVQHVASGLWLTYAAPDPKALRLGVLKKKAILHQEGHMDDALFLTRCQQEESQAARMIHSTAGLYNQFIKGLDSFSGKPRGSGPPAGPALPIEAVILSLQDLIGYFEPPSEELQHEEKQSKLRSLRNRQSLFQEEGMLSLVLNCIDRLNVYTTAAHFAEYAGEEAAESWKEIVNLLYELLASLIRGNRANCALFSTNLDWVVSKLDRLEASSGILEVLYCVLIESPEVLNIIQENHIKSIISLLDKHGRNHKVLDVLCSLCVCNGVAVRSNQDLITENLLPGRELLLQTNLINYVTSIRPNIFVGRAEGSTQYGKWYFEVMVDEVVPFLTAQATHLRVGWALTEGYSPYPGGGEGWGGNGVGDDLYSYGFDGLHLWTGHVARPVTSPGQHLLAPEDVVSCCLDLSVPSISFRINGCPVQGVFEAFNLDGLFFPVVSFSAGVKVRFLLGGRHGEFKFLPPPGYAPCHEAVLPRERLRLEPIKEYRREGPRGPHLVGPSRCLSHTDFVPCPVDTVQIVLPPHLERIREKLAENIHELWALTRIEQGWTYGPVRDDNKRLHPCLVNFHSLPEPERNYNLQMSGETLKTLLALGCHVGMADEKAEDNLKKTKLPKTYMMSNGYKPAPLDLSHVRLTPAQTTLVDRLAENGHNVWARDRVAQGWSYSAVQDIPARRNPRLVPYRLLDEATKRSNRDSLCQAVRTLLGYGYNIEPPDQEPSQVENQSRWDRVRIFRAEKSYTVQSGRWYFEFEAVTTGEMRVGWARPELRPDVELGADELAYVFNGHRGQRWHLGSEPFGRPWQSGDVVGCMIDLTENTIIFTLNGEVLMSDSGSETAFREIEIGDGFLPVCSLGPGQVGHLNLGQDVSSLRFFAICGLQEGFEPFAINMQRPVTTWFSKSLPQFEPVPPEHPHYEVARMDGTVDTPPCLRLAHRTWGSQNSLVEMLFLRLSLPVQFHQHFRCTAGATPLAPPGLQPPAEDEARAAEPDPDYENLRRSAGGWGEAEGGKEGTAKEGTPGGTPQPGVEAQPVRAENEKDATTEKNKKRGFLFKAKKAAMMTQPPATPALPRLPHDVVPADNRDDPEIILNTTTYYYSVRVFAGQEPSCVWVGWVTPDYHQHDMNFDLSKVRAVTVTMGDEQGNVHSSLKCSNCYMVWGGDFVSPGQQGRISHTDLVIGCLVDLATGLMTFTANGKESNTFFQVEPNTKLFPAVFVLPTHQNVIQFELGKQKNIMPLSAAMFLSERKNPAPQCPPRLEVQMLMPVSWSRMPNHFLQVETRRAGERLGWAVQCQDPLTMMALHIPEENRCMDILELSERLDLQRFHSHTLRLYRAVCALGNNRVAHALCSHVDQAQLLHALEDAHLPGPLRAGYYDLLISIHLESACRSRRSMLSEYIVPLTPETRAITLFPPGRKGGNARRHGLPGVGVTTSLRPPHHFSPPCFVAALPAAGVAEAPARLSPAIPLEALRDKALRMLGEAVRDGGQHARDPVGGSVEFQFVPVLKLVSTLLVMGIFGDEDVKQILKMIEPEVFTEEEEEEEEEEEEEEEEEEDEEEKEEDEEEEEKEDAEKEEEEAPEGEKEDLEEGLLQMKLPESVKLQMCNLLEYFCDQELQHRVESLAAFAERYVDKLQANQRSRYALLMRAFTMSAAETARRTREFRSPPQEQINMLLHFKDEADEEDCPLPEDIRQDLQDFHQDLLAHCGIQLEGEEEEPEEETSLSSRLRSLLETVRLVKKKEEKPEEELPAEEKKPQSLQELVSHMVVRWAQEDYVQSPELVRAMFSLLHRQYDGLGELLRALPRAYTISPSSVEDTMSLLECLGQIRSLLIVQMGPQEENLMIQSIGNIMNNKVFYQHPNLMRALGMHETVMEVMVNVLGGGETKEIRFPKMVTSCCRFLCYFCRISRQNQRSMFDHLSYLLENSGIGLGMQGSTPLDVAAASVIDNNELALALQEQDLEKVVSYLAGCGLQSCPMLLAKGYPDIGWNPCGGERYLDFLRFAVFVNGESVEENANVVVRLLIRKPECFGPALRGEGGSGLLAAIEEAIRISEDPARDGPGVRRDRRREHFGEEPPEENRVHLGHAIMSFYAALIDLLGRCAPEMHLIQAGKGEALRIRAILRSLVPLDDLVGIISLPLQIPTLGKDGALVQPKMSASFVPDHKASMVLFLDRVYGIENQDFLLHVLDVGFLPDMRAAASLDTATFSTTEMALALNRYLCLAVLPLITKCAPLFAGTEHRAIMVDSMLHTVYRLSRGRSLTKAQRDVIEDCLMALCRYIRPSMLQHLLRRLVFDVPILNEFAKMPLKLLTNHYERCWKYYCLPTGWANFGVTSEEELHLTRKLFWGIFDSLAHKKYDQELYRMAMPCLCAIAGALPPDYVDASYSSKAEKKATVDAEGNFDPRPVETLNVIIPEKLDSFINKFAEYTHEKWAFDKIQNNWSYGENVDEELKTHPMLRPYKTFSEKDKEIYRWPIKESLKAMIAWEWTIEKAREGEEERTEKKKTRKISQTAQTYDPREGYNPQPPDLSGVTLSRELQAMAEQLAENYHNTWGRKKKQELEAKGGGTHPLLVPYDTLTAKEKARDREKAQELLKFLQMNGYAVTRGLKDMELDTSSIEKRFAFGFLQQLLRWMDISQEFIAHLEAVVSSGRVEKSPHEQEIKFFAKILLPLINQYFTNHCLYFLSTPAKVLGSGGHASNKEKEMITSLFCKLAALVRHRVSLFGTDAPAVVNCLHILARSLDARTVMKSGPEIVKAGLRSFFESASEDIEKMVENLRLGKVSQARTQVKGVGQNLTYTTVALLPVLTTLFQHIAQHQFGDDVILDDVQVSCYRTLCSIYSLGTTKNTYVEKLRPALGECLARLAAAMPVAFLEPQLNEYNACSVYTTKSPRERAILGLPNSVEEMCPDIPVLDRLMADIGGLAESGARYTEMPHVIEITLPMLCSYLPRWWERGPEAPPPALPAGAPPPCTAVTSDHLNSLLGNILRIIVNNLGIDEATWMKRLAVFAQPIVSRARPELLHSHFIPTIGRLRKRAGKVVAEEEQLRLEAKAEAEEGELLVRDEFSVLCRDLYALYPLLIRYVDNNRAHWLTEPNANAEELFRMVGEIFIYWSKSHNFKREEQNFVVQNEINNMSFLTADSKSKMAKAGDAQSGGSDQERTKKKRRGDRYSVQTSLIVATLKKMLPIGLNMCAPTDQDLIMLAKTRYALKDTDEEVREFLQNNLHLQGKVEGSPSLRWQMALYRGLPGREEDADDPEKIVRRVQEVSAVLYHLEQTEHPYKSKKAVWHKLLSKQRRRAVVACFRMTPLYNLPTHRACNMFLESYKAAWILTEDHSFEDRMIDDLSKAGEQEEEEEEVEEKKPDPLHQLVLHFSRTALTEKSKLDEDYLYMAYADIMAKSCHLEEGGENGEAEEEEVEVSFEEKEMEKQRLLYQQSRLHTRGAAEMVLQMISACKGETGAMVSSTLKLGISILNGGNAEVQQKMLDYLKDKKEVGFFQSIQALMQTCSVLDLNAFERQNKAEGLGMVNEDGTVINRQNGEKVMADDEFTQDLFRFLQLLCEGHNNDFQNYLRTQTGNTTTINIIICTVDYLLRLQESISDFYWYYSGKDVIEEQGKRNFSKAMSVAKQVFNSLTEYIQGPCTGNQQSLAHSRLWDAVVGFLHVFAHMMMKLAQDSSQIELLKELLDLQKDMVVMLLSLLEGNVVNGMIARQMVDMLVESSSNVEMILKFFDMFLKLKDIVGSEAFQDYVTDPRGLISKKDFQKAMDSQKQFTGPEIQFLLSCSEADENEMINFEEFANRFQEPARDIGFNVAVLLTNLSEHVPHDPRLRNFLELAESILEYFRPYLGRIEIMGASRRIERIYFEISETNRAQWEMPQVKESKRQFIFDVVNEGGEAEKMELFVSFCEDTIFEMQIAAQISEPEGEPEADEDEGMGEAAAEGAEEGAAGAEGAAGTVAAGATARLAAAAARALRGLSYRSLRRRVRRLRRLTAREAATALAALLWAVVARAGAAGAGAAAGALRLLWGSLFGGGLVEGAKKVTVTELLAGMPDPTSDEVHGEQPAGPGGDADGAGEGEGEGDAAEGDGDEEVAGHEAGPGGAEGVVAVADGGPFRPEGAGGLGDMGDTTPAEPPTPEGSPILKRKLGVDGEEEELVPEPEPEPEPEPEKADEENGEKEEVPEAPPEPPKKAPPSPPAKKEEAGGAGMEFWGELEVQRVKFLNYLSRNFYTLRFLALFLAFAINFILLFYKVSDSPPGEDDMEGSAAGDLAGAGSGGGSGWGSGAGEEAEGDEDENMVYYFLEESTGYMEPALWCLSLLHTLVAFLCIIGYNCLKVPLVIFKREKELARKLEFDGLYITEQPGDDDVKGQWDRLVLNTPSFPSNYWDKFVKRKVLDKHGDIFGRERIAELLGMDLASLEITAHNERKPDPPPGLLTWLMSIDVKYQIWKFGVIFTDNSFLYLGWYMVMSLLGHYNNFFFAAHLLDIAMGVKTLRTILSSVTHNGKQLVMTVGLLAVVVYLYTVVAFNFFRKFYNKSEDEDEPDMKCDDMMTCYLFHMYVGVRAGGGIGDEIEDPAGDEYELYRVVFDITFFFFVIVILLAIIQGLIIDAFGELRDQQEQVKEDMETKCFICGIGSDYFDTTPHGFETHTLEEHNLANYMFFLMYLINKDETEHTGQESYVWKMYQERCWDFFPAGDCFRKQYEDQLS

Target: T1, ryanodine receptor (skeletal sarcoplasmic reticulum membrane vesicles) (Oryctolagus cuniculus, UniProt P11716)
T1 construct: skeletal sarcoplasmic reticulum membrane vesicles; from tissue; host or cells: skeletal muscle sarcoplasmic reticulum membrane vesicles
Test: biochemical
Type: binding

Question: Which IC50 does the source give for CC1CCC2(O)C3(C)CC4(O)OC2(C1O)C1(O)C3(O)C(OC(=O)c2ccc[nH]2)C(O)(C(C)C)C41C (centres unmarked) [Ryanodine, ryanodine] here?
Answer: 11.9 ± 1.6 nM

Question: And the Kd?
Answer: 4.4 ± 0.8 nM
